Results on 1 substance are retold here after patent publication US5183883A, “Conjugate of adriamycin and cyclodextrin” (Mercian Corporation, priority 1990, dated 1993).

A short description of data set [1]: Sustained release test (adriamycin liberated in phosphoric acid buffer physiological saline). In kind it is physicochemical. The conditions noted are these: about 1 mg in 0.0067 M phosphoric acid buffer physiological saline, initial pH=7.36-7.37, 37° C., HPLC. The procedure: One milligram of each of the adriamycin derivatives obtained in Examples 1, 2, 3, 4, 5 and 6 to be described later was dissolved in 0.0067 M phosphoric acid buffer physiological saline solution made by Bioproducts, Inc. (initial pH=7.36-7.37), and the solution was kept at 37° C. The amount of adriamycin liberated in the solution was analyzed by HPLC [column=YMC Pack A-312 S-5 120A ODS; mobile phase=0.05M ammonium formate buffer (pH=4.0):- acetonitrile=7:4, flow rate=1 ml/min; measuring wavelength=254 nm; retention time of adriamycin under the present conditions=3.8 minutes].
Consequently, a 50 % released time of adriamycin from the adriamycin derivatives is as follows, and sustained release was confirmed.

In a further data set the test system is mouse leukemia cells. Description: Cytotoxicity test. The conditions noted are these: 48 hours, 37° C., RPMI1640 with 10% horse serum, trypan blue. The procedure: 5×10^4 cells/ml of mouse leukemia cells were inoculated in a RPMI1640 culture medium containing 10% horse serum, and the compound of the present invention was added to this such that the final concentration became 0.001 to 10.0 μg/ml. Cultivation was conducted in a carbon dioxide gas incubator (air containing 5% carbon dioxide gas) at 37° C. for 48 hours.

A short description of the next data set: Toxicity test LD50. Particulars: mice, intravenously administered once. In kind it is in vivo. An excerpt: LD50 given when the adriamycin derivatives of this invention were intravenously administered once in mice is as follows.

Usually LD50 stands for the dose expected to kill half of the subjects tested. In the case of “adriamycin-succinic acid-γ-cyclodextrin conjugate [ASC]”, the “50 % released time of adriamycin from the adriamycin derivatives” value in data set [1] is on record as “about 1 hour”. Also, the “Cytotoxicity, IC50” value in the data set with mouse leukemia cells was 0.18 µg/mL. In the data set “Toxicity test LD50” (as derivative), this substance had an LD50 of 200 to 400 mg/kg. The LD50 as adriamycin in the data set “Toxicity test LD50” (calculated as adriamycin) was 50-100 mg/kg as adriamycin.
